Reference: PMC3681500, “Development of an orally-administrative MELK-targeting inhibitor that suppresses the growth of various types of human cancer” (Oncotarget, 2012)

Chains of the proteins cited; added tags and fusions are not shown. Lines headed by an entry give the natural chain unless they say otherwise; changes in a name come on top.
UniProt Q14680: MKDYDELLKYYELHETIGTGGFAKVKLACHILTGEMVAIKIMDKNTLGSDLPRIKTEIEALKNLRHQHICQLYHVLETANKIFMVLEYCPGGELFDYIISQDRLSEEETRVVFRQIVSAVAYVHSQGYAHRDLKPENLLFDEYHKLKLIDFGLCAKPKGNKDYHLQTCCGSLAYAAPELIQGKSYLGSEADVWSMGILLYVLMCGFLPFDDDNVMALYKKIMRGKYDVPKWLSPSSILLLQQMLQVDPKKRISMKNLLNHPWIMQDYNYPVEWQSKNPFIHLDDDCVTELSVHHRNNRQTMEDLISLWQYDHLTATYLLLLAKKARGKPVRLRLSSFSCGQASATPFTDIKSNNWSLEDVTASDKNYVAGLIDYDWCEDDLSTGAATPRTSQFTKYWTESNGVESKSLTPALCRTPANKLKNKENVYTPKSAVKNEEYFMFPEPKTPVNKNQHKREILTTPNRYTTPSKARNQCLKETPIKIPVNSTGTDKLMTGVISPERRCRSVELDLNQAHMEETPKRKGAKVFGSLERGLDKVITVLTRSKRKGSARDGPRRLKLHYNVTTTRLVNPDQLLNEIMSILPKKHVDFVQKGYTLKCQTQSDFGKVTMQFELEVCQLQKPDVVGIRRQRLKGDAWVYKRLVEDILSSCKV

Biological target: MELK (maternal embryonic leucine zipper kinase) (Homo sapiens, UniProt Q14680)
Test: in vitro kinase assay with MELK protein (IC50); also […]-ATP kinase assay with recombinant MELK at […]
Assay type: biochemical

CC(=O)c1cnc2ccc(-c3cc(Cl)c(O)c(Cl)c3)nc2c1N[C@H]1CC[C@H](CN(C)C)CC1 [OTSSP167, 1-(6-(3,5-dichloro-4-hydroxyphenyl)-4-((trans-4-((dimethylamino)methyl)cyclohexyl)amino)-1,5-naphthyridin-3-yl)ethanone]
IC50: 0.41 nM
